Laboratory results published in PubChem BioAssay AID504692 (The Scripps Research Institute Molecular Screening Center, 2011).
Only a part is listed here, and it is no random draw. Calls of active or inactive are those of the source. Rule as the data show it: active = activation mostly above about 9.5% (no sharp cut-off); inactive = mostly below about 7.6%.

Amino acid sequences for entries named in this document (tags omitted).
UniProt P47898, whole entry, looked up: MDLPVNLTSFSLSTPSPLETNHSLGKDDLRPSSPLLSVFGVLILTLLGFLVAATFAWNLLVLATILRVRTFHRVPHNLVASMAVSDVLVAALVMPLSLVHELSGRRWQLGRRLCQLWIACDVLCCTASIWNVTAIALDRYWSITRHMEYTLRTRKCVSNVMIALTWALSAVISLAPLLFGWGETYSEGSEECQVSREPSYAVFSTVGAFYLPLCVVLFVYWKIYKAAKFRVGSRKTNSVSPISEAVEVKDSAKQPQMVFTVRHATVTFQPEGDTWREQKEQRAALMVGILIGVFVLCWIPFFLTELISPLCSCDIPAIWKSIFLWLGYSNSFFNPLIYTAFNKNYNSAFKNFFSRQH

Molecular target: 5-hydroxytryptamine receptor 5A (Homo sapiens) (UniProt P47898)
Assay: HTR5A agonists in luminescence cell assay, primary screen, counter-screen for OPRM1-OPRD1 heterodimer agonist project, full-deck HTS (AID 504692);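 also: 0% = cells with vehicle only and 100% = reference agonist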
Details: cell-based, at 9.3 µM, active compounds read high

**Q.** Which activation does the source give for `COC(=O)C1=C(Cn2cnc3ccccc32)NC(=O)NC1c1cc(C)ccc1C` (stereo not drawn) here?
**A.** inactive: 7.51%

**Q.** Which activation does the source give for `COc1ccc(/C=N/NC(=O)Cn2cnc3c2c(=O)n(C)c(=O)n3C)cc1` here?
**A.** inactive: 1.59%

**Q.** Which activation does the source give for `C[C@H](NC(=O)N1CCn2c1nc1ccccc12)C(=O)N1CCCCC1` here?
**A.** inactive: -1.34%

**Q.** `CCOC(=O)CC[C@H](NC(=O)Cn1cnc2c(SC)nc(N)nc21)C(=O)OCC` was tested. Which activation did it give?
**A.** inactive: 0.46%

**Q.** With `CSc1nc2ccccc2n1CC(=O)Nc1ccc(C)c(C)c1` as the compound, how does the activation read?
**A.** inactive: 1.04%

**Q.** With `CCc1cccc(CC)c1N(COC)C(=O)Cn1c(CO)nc2ccccc21` as the compound, how does the activation read?
**A.** inactive: 2.24%

**Q.** For `CC(/C=N/NC(=O)Cn1cnc2c1c(=O)n(C)c(=O)n2C)=C\c1ccco1`, which activation is on record?
**A.** inactive: 0.67%

**Q.** With `COC(=O)c1cc2c(s1)N=C(c1ccccc1)N(C)P2(=O)N1CCOCC1` (stereo not drawn) as the compound, how does the activation read?
**A.** inactive: 0.29%

**Q.** With `Cn1c(=O)c2c(ncn2CC(=O)NC2CCCCC2)n(C)c1=O` as the compound, how does the activation read?
**A.** inactive: 5.17%

**Q.** How did the activation turn out when `Cc1sc2ncnc(NC3CCN(Cc4ccccc4)CC3)c2c1C` was run?
**A.** inactive: 1.67%

**Q.** How did the activation turn out when `CC(C)NC(=O)Cn1cnc2c1c(=O)n(C)c(=O)n2C` was run?
**A.** inactive: 0.23%

**Q.** With `CC(=O)NC(SC(=S)N(CC(C)C)CC(C)C)C(Cl)(Cl)Cl` (stereo not drawn) as the compound, how does the activation read?
**A.** inactive: 0.2%

**Q.** Which activation does the source give for `Cc1ccc(OP(=O)(Nc2ccccn2)Oc2ccc(C)cc2)cc1` here?
**A.** inactive: 4.06%

**Q.** `CC(C(=O)Nc1ccc2c(c1)OCO2)n1cnc2c1c(=O)n(C)c(=O)n2C` (stereo not drawn) was tested. Which activation did it give?
**A.** inactive: -4.48%

**Q.** How did the activation turn out when `CCc1cccc(CC)c1N(COC)C(=O)Cn1c(C(C)O)nc2ccccc21` (stereo not drawn) was run?
**A.** inactive: -3.53%

**Q.** How did the activation turn out when `Cn1c(=O)c2c(ncn2CC(=O)Nc2ccccc2N2CCOCC2)n(C)c1=O` was run?
**A.** inactive: 3.51%

**Q.** With `FC(F)(F)c1nc2ccccc2n1CCNc1nc(CN2CCCCC2)cs1` as the compound, how does the activation read?
**A.** inactive: 1.2%

**Q.** How did the activation turn out when `CSc1nc(N)nc2c1ncn2CC(=O)NCC(c1ccccc1)c1ccccc1` was run?
**A.** inactive: 1.89%

**Q.** Which activation does the source give for `CC(C)N(C(=O)Cn1c(SCC(=O)Nc2nccs2)nc2ccccc21)C(C)C` here?
**A.** inactive: 9.83%

**Q.** How did the activation turn out when `O=C1CC(N2CCC(n3c(=O)[nH]c4ccccc43)CC2)C(=O)N1Cc1ccccc1` (stereo not drawn) was run?
**A.** inactive: 5.32%

**Q.** How did the activation turn out when `Cc1ccc2c(c1)C1CN(C)CCC1N2C(=O)c1cccc(S(=O)(=O)N(C)C)c1` (stereo not drawn) was run?
**A.** inactive: -2.18%

**Q.** With `O=C(CCCCCNC(=O)N1CCn2c1nc1ccccc12)NCc1ccc(F)cc1` as the compound, how does the activation read?
**A.** inactive: 3.46%

**Q.** Which activation does the source give for `CN1CCC(N(C)c2ccc(C(N)=O)cc2[N+](=O)[O-])CC1` here?
**A.** inactive: 3.41%

**Q.** With `CC(C)[C@H](NC(=O)N1CCn2c1nc1ccccc12)C(=O)NCCc1ccccc1` as the compound, how does the activation read?
**A.** inactive: 1.29%

**Q.** How did the activation turn out when `Cc1ccc2c(c1)C1CN(C)CCC1N2S(=O)(=O)c1ccccc1` (stereo not drawn) was run?
**A.** inactive: 1.43%

**Q.** For `CC(O)CNc1nc2ccccc2n1CC(=O)NC12CC3CC(CC(C3)C1)C2` (stereo not drawn), which activation is on record?
**A.** inactive: 1.88%

**Q.** With `O=C(OC1CN2CCC1CC2)c1ccccc1` (stereo not drawn) as the compound, how does the activation read?
**A.** inactive: 4.11%

**Q.** How did the activation turn out when `CC1CN(CCn2cnc3c(N)ncnc32)CC(C)O1` (stereo not drawn) was run?
**A.** inactive: 1.21%

**Q.** With `CCC(=O)N1C2C3N(C(=O)CC)C1C1N(C(=O)CC)C(C(N1C(=O)CC)N3C(=O)CC)N2C(=O)CC` as the compound, how does the activation read?
**A.** inactive: -2.08%

**Q.** For `O=C(Cn1c(=O)n(CC(=O)NCc2ccccc2)c2ccccc21)NCc1ccccc1`, which activation is on record?
**A.** inactive: 5.69%

**Q.** With `Clc1ccc(N2CCN(Cc3c[nH]c4ncccc34)CC2)cc1` as the compound, how does the activation read?
**A.** inactive: 4.75%

**Q.** Which activation does the source give for `Cc1ccc2c(c1)C1CN(C)CCC1N2C(=S)NC(=O)c1ccc(Cl)cc1Cl` (stereo not drawn) here?
**A.** inactive: 0.88%

**Q.** How did the activation turn out when `Cc1ccc(C)c(Cn2c(=O)c3c(nc4n3CCN4Cc3ccco3)n(C)c2=O)c1` was run?
**A.** inactive: -4.14%

**Q.** `CCCC(=O)Nc1ccc2c(c1)nc1n2CCN(CCOC)C1` was tested. Which activation did it give?
**A.** inactive: -1.66%

**Q.** Which activation does the source give for `CC(/C=N\NC(=O)Cn1c(C)nc2ccccc21)=C\c1ccccc1` here?
**A.** inactive: 2.48%

**Q.** How did the activation turn out when `COCCNC(=O)Cn1c(=O)n(C)c2ccccc21` was run?
**A.** inactive: 1.37%

**Q.** How did the activation turn out when `Cn1c(=O)c2c(ncn2CC(=O)N2CCN(c3ccccc3)CC2)n(C)c1=O` was run?
**A.** inactive: -1.76%

**Q.** Which activation does the source give for `COCCN1CCn2c(nc3cc(Nc4nnc(C)c5ccccc45)ccc32)C1` here?
**A.** inactive: 0.07%

**Q.** With `C[C@H](O)[C@@H]1C(=O)N2CCc3ccc(-c4cccc(F)c4)cc3[C@@H]2C[C@@H]1N(C)C(=O)Nc1ccccc1` as the compound, how does the activation read?
**A.** inactive: 0.4%

**Q.** `CC1CCCN(C(=O)Cn2cnc3c2c(=O)n(C)c(=O)n3C)C1` (stereo not drawn) was tested. Which activation did it give?
**A.** inactive: 1.39%

**Q.** With `CC(NC(=O)COC(=O)C(O)(c1ccccc1)c1ccccc1)c1ccccc1` (stereo not drawn) as the compound, how does the activation read?
**A.** inactive: -4.63%

**Q.** Which activation does the source give for `CCc1cccc(C)c1N(C(=O)Cn1c(CO)nc2ccccc21)C(C)COC` (stereo not drawn) here?
**A.** inactive: -0.56%

**Q.** For `Cc1ccc(CNC(=O)Cn2cnc3c(NC(=O)OCc4ccccc4)ncnc32)o1`, which activation is on record?
**A.** inactive: -0.37%

**Q.** How did the activation turn out when `Cc1ccccc1OP(=O)(Nc1ccccn1)Oc1ccccc1C` was run?
**A.** inactive: 4.56%

**Q.** Which activation does the source give for `CCOC(=O)C1=C(Cn2cnc3ccccc32)NC(=O)NC1c1ccc(Cl)cc1` (stereo not drawn) here?
**A.** inactive: 2.49%

**Q.** For `CN(C)CCn1cnc2ccccc21`, which activation is on record?
**A.** inactive: -0.16%

**Q.** How did the activation turn out when `O=c1c2cc([N+](=O)[O-])ccc2[nH]c2c([N+](=O)[O-])cc([N+](=O)[O-])cc12` was run?
**A.** inactive: 0.83%

**Q.** Which activation does the source give for `CN(C)C(=O)Oc1noc2ccccc12` here?
**A.** inactive: 2.09%

**Q.** For `Cc1ccc(OCCNC(=O)Cn2cnc3c(=O)n(C)c(=O)n(C)c32)cc1C`, which activation is on record?
**A.** inactive: -2.25%

**Q.** How did the activation turn out when `O=C(NC1CCS(=O)(=O)C1)NP(=S)(Oc1ccccc1)Oc1ccccc1` (stereo not drawn) was run?
**A.** inactive: 0.7%

**Q.** With `COc1cccc(NC(=O)[C@H](C)NC(=O)N2CCn3c2nc2ccccc23)c1` as the compound, how does the activation read?
**A.** inactive: -1.83%

**Q.** With `CCNC(=S)/N=C(\N)N[N+](=O)[O-]` as the compound, how does the activation read?
**A.** inactive: -5.47%

**Q.** With `CCSc1nc2ccccc2n1CC(=O)N1CCOCC1` as the compound, how does the activation read?
**A.** inactive: 2.33%

**Q.** With `COc1cc(/C=N/NC(=O)Cn2cnc3c2c(=O)n(C)c(=O)n3C)ccc1O` as the compound, how does the activation read?
**A.** inactive: -1.61%

**Q.** For `Cc1nc2ccccc2n1C1CC(=O)N(Cc2ccccc2)C1=O` (stereo not drawn), which activation is on record?
**A.** inactive: 0.35%

**Q.** For `CC(c1ccccc1)N1CCn2c(nc3cc(NS(C)(=O)=O)ccc32)C1` (stereo not drawn), which activation is on record?
**A.** inactive: 6.25%

**Q.** `S=C(Nc1ccccc1)N1CCn2c1nc1ccccc12` was tested. Which activation did it give?
**A.** inactive: -0.16%

**Q.** How did the activation turn out when `c1ccc(CN2CCN(CCN3CCn4c3nc3ccccc34)CC2)cc1` was run?
**A.** inactive: -2.88%
